scFv variants of Ab-14 (light chain) against a SARS-CoV-2 spike peptide

Target: peptide PDVDLGDISGINAS, taken from heptad repeat 2 (HR2) of SARS-CoV-2 spike.

Each scFv is VH, three GGGGS repeats, VL, as in the parent Ab-14, and differs from it in the CDRs of the light chain only.
VH: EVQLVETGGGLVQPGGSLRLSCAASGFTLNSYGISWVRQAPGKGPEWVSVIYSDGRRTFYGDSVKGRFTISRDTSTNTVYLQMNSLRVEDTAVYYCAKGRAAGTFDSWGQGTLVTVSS
VL: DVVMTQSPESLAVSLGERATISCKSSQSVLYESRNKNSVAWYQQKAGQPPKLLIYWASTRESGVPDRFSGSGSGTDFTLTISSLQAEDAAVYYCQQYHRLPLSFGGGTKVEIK

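These sequences belong to a second round, designed from the earlier measurements on random variants of the parent. Their group label is 14L_GP_Gibbs (GP: Gaussian process model; Gibbs: Gibbs sampling; a sequence that several methods proposed may carry one label only). In AlphaSeq, yeast of one mating type display the scFv and yeast of the other type display the target. Pairs that bind mate more often; barcode pairs of the diploids are counted by sequencing. Scores were corrected for input abundance and mapped to Kd with protein pairs of known affinity run in the same pool. Each pool was mated in six replicate cultures.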

Positions count from residue 1 of the parent VL; S25V puts V in place of S. Affinities are written as log10 Kd with Kd in nM; a lower number is a better binder. Averages over replicates are reported, and they cover detected replicates only. The parent sequence was in this pool as ten entries: three were never detected, three once, and four in most replicates, with averages from 0.34 to 2.37.

{"changes": "S25V Q27C L30M Y31L K36W S38A W56E T59Q", "log10 Kd (nM) by replicate": "0.93 / 0.59 / 0.89 / 0.51 / 0.73 / 1.08", "log10 Kd (nM), mean": "0.79", "empty controls": "0 of 18"}
{"changes": "S25L S26M Q27G N35W S38A W56G", "log10 Kd (nM) by replicate": "0.42 / 0.89 / 0.19 / 1.59 / 0.54 / 1.39", "log10 Kd (nM), mean": "0.84", "empty controls": "0 of 18"}
{"changes": "S25I S26P V29M Y31G S33W W56N T59Q", "log10 Kd (nM) by replicate": "0.22 / -0.03 / -0.05 / -0.08 / 0.22 / 0.02", "log10 Kd (nM), mean": "0.05", "empty controls": "1 of 18 (4.04)"}
{"changes": "S25I V29Y Y31G K36V W56N", "log10 Kd (nM) by replicate": "-0.09 / -0.18 / -0.24 / -0.17 / -0.24 / -0.01", "log10 Kd (nM), mean": "-0.15", "empty controls": "0 of 18"}
{"changes": "S25L S26E Q27M L30Q Y31L S33M W56S S62R", "log10 Kd (nM) by replicate": "0.36 / 0.38 / 0.56 / 0.11 / 0.12 / 0.50", "log10 Kd (nM), mean": "0.34", "empty controls": "1 of 18 (2.26)"}
{"changes": "S25Q S26D V29C L30P Y31G S33Q W56S E61I", "log10 Kd (nM) by replicate": "1.56 / 1.85 / 1.43 / 1.28 / 1.17 / 1.85", "log10 Kd (nM), mean": "1.52", "empty controls": "0 of 18"}
{"changes": "K24A S25V S26D Q27F V29W L30W W56N S62Q", "log10 Kd (nM) by replicate": "-0.05 / -0.14 / -0.24 / -0.33 / -0.22 / -0.04", "log10 Kd (nM), mean": "-0.17", "empty controls": "0 of 18"}
{"changes": "S25A S26P V29M L30W W56S E61S S62Q", "log10 Kd (nM) by replicate": "0.38 / 0.44 / 0.05 / 0.13 / 0.20 / 0.46", "log10 Kd (nM), mean": "0.28", "empty controls": "2 of 18 (3.29)"}
{"changes": "S25V S28K V29D L30P Y31M W56H T59L", "log10 Kd (nM) by replicate": "0.35 / -0.03 / -0.06 / -0.17 / -0.05 / 0.00", "log10 Kd (nM), mean": "0.01", "empty controls": "0 of 18"}
{"changes": "S25F S26E V29W K36V W56Q T59Q E61S", "log10 Kd (nM) by replicate": "-0.03 / -0.10 / -0.29 / -0.30 / -0.14 / -0.21", "log10 Kd (nM), mean": "-0.18", "empty controls": "3 of 18 (2.37)"}
{"changes": "S25V V29E E32G N37W W56N S103Q", "log10 Kd (nM) by replicate": "0.17 / -0.03 / -0.42 / -0.28 / -0.20 / 0.24", "log10 Kd (nM), mean": "-0.09", "empty controls": "1 of 18 (2.38)"}
{"changes": "S25L V29N L30G S33D W56S T59Q E61L S62M", "log10 Kd (nM) by replicate": "-0.36 / -0.47 / -0.13 / -0.53 / -0.45 / -0.39", "log10 Kd (nM), mean": "-0.39", "empty controls": "1 of 18 (1.98)"}
{"changes": "S25L S26Y V29Q E32L K36V S38A W56N T59Q E61M", "log10 Kd (nM) by replicate": "0.10 / -0.13 / -0.30 / -0.19 / -0.14 / 0.20", "log10 Kd (nM), mean": "-0.08", "empty controls": "1 of 18 (3.20)"}
{"changes": "S25I S26H S33D K36I W56S T59Q E61Y Q96A", "log10 Kd (nM) by replicate": "1.10 / 0.41 / 0.73 / 0.50 / 0.44 / 0.63", "log10 Kd (nM), mean": "0.64", "empty controls": "1 of 18 (3.24)"}
{"changes": "S25F V29D L30P S33D R34G W56N E61S", "log10 Kd (nM) by replicate": "0.29 / 0.16 / 0.09 / 0.25 / 0.44 / 0.26", "log10 Kd (nM), mean": "0.25", "empty controls": "1 of 18 (5.08)"}
{"changes": "S25L L30E W56D S58Q", "log10 Kd (nM) by replicate": "-0.41 / -0.32 / -0.34 / -0.60 / -0.42 / -0.47", "log10 Kd (nM), mean": "-0.42", "empty controls": "0 of 18"}
{"changes": "S25F S26Q Q27W V29W W56N H98W", "log10 Kd (nM) by replicate": "0.32 / 0.00 / 0.18 / -0.08 / -0.04 / 0.01", "log10 Kd (nM), mean": "0.07", "empty controls": "2 of 18 (2.96)"}
{"changes": "S25L S26L Y31L K36W W56N S62L", "log10 Kd (nM) by replicate": "-0.18 / -0.13 / -0.45 / -0.26 / -0.06 / -0.02", "log10 Kd (nM), mean": "-0.18", "empty controls": "1 of 18 (2.94)"}
{"changes": "S25L Q27G L30E Y31Q E32L W56H S62V Q96A", "log10 Kd (nM) by replicate": "0.16 / 0.06 / -0.03 / -0.24 / 0.22 / 0.32", "log10 Kd (nM), mean": "0.08", "empty controls": "1 of 18 (2.25)"}
{"changes": "K24I S25L V29M N35M W56N T59Q E61W S62M", "log10 Kd (nM) by replicate": "0.49 / 0.04 / 0.04 / -0.12 / 0.08 / 0.14", "log10 Kd (nM), mean": "0.11", "empty controls": "3 of 18 (2.20)"}
{"changes": "S25L S26M Q27C V29Q L30E K36T W56N", "log10 Kd (nM) by replicate": "1.09 / 0.86 / 0.76 / 0.81 / 0.84 / 1.01", "log10 Kd (nM), mean": "0.89", "empty controls": "0 of 18"}
{"changes": "K24F S25L N35E K36D W56N T59Q E61C S62E", "log10 Kd (nM) by replicate": "0.63 / 0.57 / 0.61 / 0.82 / 0.54 / 0.68", "log10 Kd (nM), mean": "0.64", "empty controls": "1 of 18 (3.00)"}
{"changes": "S25L Y31M S38N W56E T59Q", "log10 Kd (nM) by replicate": "-0.28 / -0.29 / -0.34 / -0.37 / -0.28 / -0.16", "log10 Kd (nM), mean": "-0.29", "empty controls": "0 of 18"}

Excerpt, the final 2 entries:

| changes | log10 Kd (nM) by replicate | log10 Kd (nM), mean | empty controls |
|---|---|---|---|
| K24F S25L N35E K36D W56N T59Q E61C S62E | 0.63 / 0.57 / 0.61 / 0.82 / 0.54 / 0.68 | 0.64 | 1 of 18 (3.00) |
| S25L Y31M S38N W56E T59Q | -0.28 / -0.29 / -0.34 / -0.37 / -0.28 / -0.16 | -0.29 | 0 of 18 |

Background: pairings of all light chain designs with three empty control strains gave a value in 4% of cases (median 2.64, 5th percentile 1.59). Values in that range, when seen in few replicates, are hard to tell from nonspecific mating. Also given: how often the same scFv was detected with the empty control strains, with their mean in brackets. The authors' rule: three or more of the six replicates give a measured affinity, fewer mean a poor binder. Values of this round are not directly comparable with the first-round values of the same sequences.

The measurements come from Li et al. 2023 (doi:10.1038/s41467-023-39022-2) through the FLAb antibody collection.